Measured values as given in ChEMBL document CHEMBL5325495, “Synthesis and anti-cancer potential of potent peripheral MAOA inhibitors designed to limit blood:brain penetration” (Bioorg Med Chem, 2023).

Sequences of proteins named here, by UniProt entry; tags and fusion partners are left off.
UniProt P27338, whole entry: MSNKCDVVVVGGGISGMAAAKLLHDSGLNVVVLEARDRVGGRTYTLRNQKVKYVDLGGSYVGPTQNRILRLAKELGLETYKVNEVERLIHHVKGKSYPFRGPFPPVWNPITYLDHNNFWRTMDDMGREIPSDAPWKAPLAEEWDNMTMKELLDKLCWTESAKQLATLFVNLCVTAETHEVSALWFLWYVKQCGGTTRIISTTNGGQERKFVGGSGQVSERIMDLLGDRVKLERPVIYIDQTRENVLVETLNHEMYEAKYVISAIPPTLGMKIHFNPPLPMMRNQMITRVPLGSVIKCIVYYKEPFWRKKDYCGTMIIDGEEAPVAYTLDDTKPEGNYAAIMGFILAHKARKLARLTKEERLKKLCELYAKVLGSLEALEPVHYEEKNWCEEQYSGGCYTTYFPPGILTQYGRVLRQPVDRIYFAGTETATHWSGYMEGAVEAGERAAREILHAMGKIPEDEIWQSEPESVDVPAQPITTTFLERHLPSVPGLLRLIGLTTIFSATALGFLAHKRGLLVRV

Biological target: Amine oxidase [flavin-containing] B (Homo sapiens, UniProt P27338)
Assay: biochemical
Format: cell-based, BTI

With NNCCc1ccccc1 [PHENELZINE] the IC50 was 21.9 µM.
